Results as given in patent US20230323475A1, “TEST METHOD, OF DIVIDING BLASTIC PLASMACYTOID DENDRITIC CELL NEOPLASM (BPDCN) INTO SUBTYPES” (JAPANESE FOUNDATION FOR CANCER RESEARCH, priority 2016, published 2023).

Assays:
[1] = system: BPDCN cell line PMDC05 (MYC-BPDCN); assay: Cell survival rate (Cell Titer-Glo cell growth assay), PMDC05; assay type: cell-based; settings: PMDC05, 48 hours, inhibitor added at a high concentration, FIG. 6
From the text: (§1) The cell lines used were 4 lines: BPDCN cell lines CAL-1 (MYC^+BPDCN; Non Patent Literature 11; obtained from Nagasaki University) and PMDC05 (MYC-BPDCN; Non Patent Literature 12; obtained from Niigata University), a positive control plasma cell neoplasm KMS12PE (obtained from JCRB Cell Bank) having the increased expression of MYC, and a negative control leukemia cell line K562 (obtained from JCRB Cell Bank) in which no MYC gene rearrangement was seen.
(§2) The CAL-1, PMDC05, or KMN12PE cells at 4000 cells/well or K562 at 1000 cells/well were inoculated to 96-well cell culture plates. […] The cell survival rates were measured using a cell growth assay kit using CTG reagent (Cell Titer-Glo, manufactured by Promega Corp.).
(§3) Aurora kinase inhibitors, albeit not agents directly suppressing MYC expression, were analyzed for their effects in the present invention. […] Each inhibitor was added from 1 nm to 10000 nM to the medium of the cells of each line. 48 hours later, the survival rates of these cells were analyzed (FIG. 10).
(§4) Each inhibitor was added in the concentration of 1 nM to 10000 nM to the 4 cell lines described above. The survival rates of these cells were analyzed 48 hours later (FIG. 11).

[2] = system: BPDCN cell line CAL-1 (MYC+BPDCN); assay: Cell survival rate (Cell Titer-Glo cell growth assay), CAL-1; assay type: cell-based; settings: CAL-1, 48 hours after addition of the BET bromodomain-selective inhibitor, FIG. 6
From the text: as §1, §2, §3, §4

CCNC(=O)C[C@@H]1N=C(c2ccc(Cl)cc2)c2cc(OC)ccc2-n2c(C)nnc21 [I-BET762]
survival rate of PMDC05 [1]: high survival rate | survival rate of the CAL-1 cell line [2]: sharply decreased
